The record followed here is PubChem BioAssay (EPA / NIEHS).

By AC50 is commonly meant the midpoint of the concentration-response curve, whichever way the signal moves.

The list shows a part of the results, in another mix than the full data. Calls of active or inactive are those of the source. How the source made its calls: active means hit-call score of the fitted dose curve at least 0.9, where 1 is the maximum; inactive means score below 0.9.

The assay in a line: ATG_RORE_CIS: Attagene CIS-FACTORIAL HepG2 Assay for human RAR-related Orphan Receptor Element (RORE) (AID 2282959). The settings on record: HepG2 Attagene cis-factorial RORE reporter, mRNA; actives raise or lower the signal.
In the case of `c1cc(C(c2ccc(OCC3CO3)cc2)C(c2ccc(OCC3CO3)cc2)c2ccc(OCC3CO3)cc2)ccc1OCC1CO1` (stereo not drawn), the AC50 was active: 49.1 µM.
In the case of `O=C(O)c1snc(Cl)c1Cl`, the compound was classed as inactive.
Still for that read-out and setting: for `Fc1c(F)c(F)c(Br)c(F)c1F` the value was “inactive”; for `CCCCCCOC(C)=O`, “inactive”.
As for `COc1ccc(NC(C)=O)cc1N`, the result was inactive.
Same read-out and setting: for `CC(C)c1cccc(C(C)C)c1N1C(=O)c2ccc(O)cc2C1=O` the value was “inactive”; for `CCC1(C)C(=O)N(Cl)C(=O)N1Cl` (stereo not drawn), “inactive”.
Same read-out and setting: the value for `CCN(Cc1cccc(S(=O)(=O)O)c1)c1ccc(C(=C2C=CC(=[N+](CC)Cc3cccc(S(=O)(=O)[O-])c3)C=C2)c2ccccc2)cc1` was “inactive”; that for `O=P(OC(CCl)CCl)(OC(CCl)CCl)OC(CCl)CCl` was “inactive”; that for `CCCCCCCCc1ccc(Nc2ccc(CCCCCCCC)cc2)cc1` was “inactive”.
For the compound `Cc1ccc(S(=O)(=O)Oc2ccc(N=Nc3ccc(-c4ccc(N=Nc5c(O)ccc6cc(S(=O)(=O)O)cc(S(=O)(=O)O)c56)c(C)c4)cc3C)cc2)cc1`, the concentration at half-maximal activity (AC50) was active: 5.37 µM.
On to `Cc1cc(=O)oc2cc(O)ccc12`, for which the result was inactive.
Regarding `C=C[C@](C)(O)CC[C@@H]1[C@@]2(C)CCCC(C)(C)[C@@H]2CC[C@@]1(C)O`, the call was inactive.
